Test results taken from article PMC6271009, “Design and Synthesis of Thiazolo[5,4-f]quinazolines as DYRK1A Inhibitors, Part II” (Molecules, 2014).

What was measured:
DYRK1B = DYRK1B (Homo sapiens, UniProt Q9Y463); experiment: DYRK1B kinase assay, Reaction Biology Corporation HotSpot technology (33P ATP)
DYRK1A = target: T1, DYRK1A (Homo sapiens, UniProt Q13627); experiment: DYRK1A kinase assay, Reaction Biology Corporation HotSpot technology (33P ATP); format: biochemical; settings: purified recombinant kinase, 10 µM ATP, 120 min, room temperature
T1 construct: Purified recombinant kinase was incubated with serial 3-fold dilutions of test compounds; purchased Reaction Biology Corporation

IC50 (DYRK1B) | IC50 (DYRK1A) | SMILES
84.9 nM |  | COC(=N)c1nc2ccc3ncnc(N(C)c4ccc(OC)cc4)c3c2s1 [Compound 11a, Methyl 9-[(4-methoxyphenyl)(methyl)amino]thiazolo[5,4-f]quinazoline-2-carbimidate]
 | 24 nM | CCN1/C(=C/C(C)=O)Sc2ccc(OC)cc21 [TG003, reference compound]
4460 nM |  | COC(=N)c1nc2ccc3ncnc(N(C)c4ccc(OC)c(OC)c4)c3c2s1 [Compound 11b, Methyl 9-[(3,4-dimethoxyphenyl)(methyl)amino]thiazolo[5,4-f]quinazoline-2-carbimidate]
